# From publication PMC7215652, “An Affibody Molecule Is Actively Transported into the Cerebrospinal Fluid via Binding to the Transferrin Receptor” (International Journal of Molecular Sciences, 2020)
# B1: recombinant his-tagged mouse TfR (extracellular domain of the mouse transferrin receptor) (receptor)
# chain: not shown
# notes: mouse transferrin receptor, recombinant extracellular domain that starts at Cys 89; also called mTfR; source: bought: Sino Biological Inc
# Target: the molecule itself
# Test: SDS-PAGE with and without DTT; DTT-treated and non-treated recombinant TfR compared on SDS-PAGE to assess its dimeric status
protein,measurement,value
B1,binding result,binds
